These results are taken from article PMC3906128 (Addiction biology, 2011).

Amino acid sequences for entries named in this document (tags omitted).
UniProt P33535, whole entry: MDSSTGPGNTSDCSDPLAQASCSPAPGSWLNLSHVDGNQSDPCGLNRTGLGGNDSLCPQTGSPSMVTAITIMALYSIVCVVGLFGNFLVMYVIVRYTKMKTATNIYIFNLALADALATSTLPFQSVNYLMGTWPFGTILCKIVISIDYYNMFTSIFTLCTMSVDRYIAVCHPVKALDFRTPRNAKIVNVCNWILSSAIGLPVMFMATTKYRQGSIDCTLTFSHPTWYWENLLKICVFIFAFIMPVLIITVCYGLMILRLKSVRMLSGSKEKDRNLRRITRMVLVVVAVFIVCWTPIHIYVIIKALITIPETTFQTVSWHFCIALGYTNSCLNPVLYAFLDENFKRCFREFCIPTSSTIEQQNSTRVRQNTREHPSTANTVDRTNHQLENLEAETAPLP

For orientation: EC50 means the concentration giving half of the maximal effect. A lower EC50 goes with an effect from little substance.

The assay addresses MOP-R (Rattus norvegicus, UniProt P33535). Nature of the assay: DAMGO-stimulated [35S]GTPγS binding in rat midbrain membranes. Format: biochemical. To be noted: Mean (± SEM) EC50 for Midbrain Opioid Stimulation, ethanol-trained rats. (In general: GTPγS is a poorly hydrolysed GTP analogue; its binding reports G protein activation.)

Structures can show the parent of a compound that is named as a salt.

With `C[C@@H](NC(=O)[C@@H](N)Cc1ccc(O)cc1)C(=O)NCC(=O)N(C)[C@@H](Cc1ccccc1)C(=O)NCCO` [DAMGO, [D-Ala^2, N-Me-Phe^4, Gly^5-ol]-Enkephalin acetate salt], a half-maximal response (SoRI-9409 (5 mg/kg I.P.)/Yohimbine (2 mg/kg I.P.)) (EC50) required 4 ± 0.3 µM, the EC50 (SoRI-9409 (5 mg/kg I.P.)/Yohimbine-vehicle) worked out at 4 ± 0.1 µM, the EC50 (SoRI-9409-vehicle/Yohimbine (2 mg/kg I.P.)) amounted to 3.7 ± 0.2 µM and it took 4.1 ± 0.2 µM to reach a half-maximal effect (SoRI-9409-vehicle/Yohimbine-vehicle) (EC50).
